In the test the target is 5-hydroxytryptamine receptor 6 (Homo sapiens, UniProt P50406). In words: Binding affinity against human 5-hydroxytryptamine 6 receptor stably transfected to HEK 293 human embryonic kidney cells using [3H]-lysergic acid diethylamide as radioligand. Type of test: cell-based, HEK293.

Protein sequences, listed by entry. Tags and fused reporters are not part of them.
UniProt P50406, whole entry: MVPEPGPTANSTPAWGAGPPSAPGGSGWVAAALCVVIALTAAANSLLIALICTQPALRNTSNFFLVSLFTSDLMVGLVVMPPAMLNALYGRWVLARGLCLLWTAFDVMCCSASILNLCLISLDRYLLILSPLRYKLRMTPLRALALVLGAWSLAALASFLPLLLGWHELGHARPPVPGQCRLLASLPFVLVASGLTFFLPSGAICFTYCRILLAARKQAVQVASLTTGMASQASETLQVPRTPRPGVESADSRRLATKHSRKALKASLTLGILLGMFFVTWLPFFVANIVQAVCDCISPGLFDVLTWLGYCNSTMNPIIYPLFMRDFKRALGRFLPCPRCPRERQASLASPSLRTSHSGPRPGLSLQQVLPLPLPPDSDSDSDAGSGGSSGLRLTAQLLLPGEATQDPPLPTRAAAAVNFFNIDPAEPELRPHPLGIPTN

For one compound, Ki results are on record in ChEMBL document CHEMBL1132775, “N1-(Benzenesulfonyl)tryptamines as novel 5-HT6 antagonists” (Bioorg Med Chem Lett, 2000).

`COc1ccc2[nH]cc(CCN(C)C)c2c1` [MEBUFOTENIN]: the Ki is 16 nM.

Broadly, the Ki is the equilibrium dissociation constant of an inhibitor or competing ligand from its target. Read a high Ki as weaker binding.
